Test system: post-operative pain in rats (mechanical allodynia)
Settings: given 3.5 h after surgery

In the case of `Cc1cc(OCCN2CCOCC2)nn1-c1ccc2ccccc2c1` [compound 63, 4-{2-[5-Methyl-1-(naphthalen-2-yl)-1H-pyrazol-3-yloxy]ethyl}morpholine], the “effect on remifentanil analgesia” value (compound 63 2.5, 5, 10, 20, 40, 80 mg/kg + remifentanil 0.01 mg/kg) was “enhances remifentanil analgesia”, the “effect on sufentanil analgesia” value (compound 63 5, 10, 20, 40 mg/kg + sufentanil 0.003 mg/kg) was “enhances sufentanil analgesia” and the “effect on fentanyl analgesia” value (compound 63 10, 20, 40, 80 mg/kg + fentanyl 0.01 mg/kg) was “enhances fentanyl analgesia”.

— US9757358B2 (priority 2010, dated 2017)
